{
  "source": "patent US4161598A",
  "about": "“1-Oxygenated-2,6-methano-3-benzazocines” (Sterling Drug Inc., priority 1977, dated 1979)",
  "origin": "cited, not measured here",
  "settings": "as the hydrochloride salt; Ziering reference; cited from earlier work",
  "data": [
    {"smiles": "COc1ccc2c(c1)[C@]1(C)CCN(C)[C@H](C2=O)[C@@H]1C", "note": "(relative stereo) [Compound 12]", "values": [
      {"measurement": "activity in analgesic, anti-inflammatory and antiedema, and morphine antagonist tests", "value": "inactive in all tests except the morphine antagonist test in the mouse"}
    ]}
  ]
}
